# Earlier results as cited in paper PMC2747801 (European journal of pharmaceutical sciences : official …, 2009).
# Where two headings read alike, the source gives them in different places.
# What was measured:
# [1] = cited from earlier work
# [2] = mouse, mdr1a(−/−), footnote o ref Cisternino et al. 2004; cited from earlier work
SMILES,logPS(obs) ([1]; rat ref Murakami et al. 2000),logPS(obs) [2],"logPS(obs) ([1]; rat, in vivo)"
CC[C@]1(O)C[C@@H]2CN(CCc3c([nH]c4ccccc34)[C@@](C(=O)OC)(c3cc4c(cc3OC)N(C)[C@H]3[C@@](O)(C(=O)OC)[C@H](OC(C)=O)[C@]5(CC)C=CCN6CC[C@]43[C@@H]65)C2)C1 [vinblastine],−3.49 mL/g/s,−3.31 mL/g/s,
Cc1nc2n(c(=O)c1CCN1CCC(c3noc4cc(F)ccc34)CC1)CCCC2 [risperidone],,,−1.81 mL/g/s
Cc1cc2c(s1)Nc1ccccc1N=C2N1CCN(C)CC1 [olanzapine],,,−1.29 mL/g/s
